Test results taken from US20250129430A1, “HIGH ATP-AFFINITY PROTEIN AS THERAPEUTIC TARGET FOR INTRACTABLE CANCER MOLECULAR SUBTYPES AND INHIBITOR THEREOF” (VeraVerse Co., Ltd., priority 2021, published 2025).

System: FU97
Assay: Cell viability drug screen, 12-point dose-response AUC
Type: cell-based, human
Design: scale not given here
Settings: FU97 cells; 72 hours
Description: Cells cultured for cell-based drug assay were inoculated into a 96-well white optical plate (Corning) at 5×10^3 cells per well. After 24 hours after inoculation, a 2.5 MJT (primary screen) or a half-log 12-serial diluent (secondary screen) of the pharmacological compound contained in DMSO is added to the cells with a robot using a BioMek FXp liquid processor (Beckman) to add to the cells at 50 mM. The final drug concentration in the 5 ns range and the DMSO specification control (0.5%) were calculated. The cells were then further incubated at 37° C. in a 5% CO2 incubator for 72 hours prior to measuring cell viability using the extra-GLO assay kit (Promega). The luminescent properties were measured after 15 min incubation at room temperature using a plate stacker equipped with a plate stacker. The normalized viability for the DMSO-based control was measured to generate a cell line-specific 12-point dose-response curve for each pharmacological compound, and then the area under the curve (AUC) was calculated using a trapezoidal method.

With `Cc1ccc(C(=O)N(CCCN)[C@@H](c2nc3cc(Cl)ccc3c(=O)n2Cc2ccccc2)C(C)C)cc1` [Ispinesib (SB-715992), Ispinesib] the “Average Area Under the Viability Curve (AUC), AUC norm value” was 1.3405.
